The text below walks through data of ChEMBL document CHEMBL1155783, “Novel sterically hindered cannabinoid CB1 receptor ligands” (Bioorg Med Chem, 2008).

Chains of the proteins cited; added tags and fusions are not shown.
UniProt P21554, whole entry: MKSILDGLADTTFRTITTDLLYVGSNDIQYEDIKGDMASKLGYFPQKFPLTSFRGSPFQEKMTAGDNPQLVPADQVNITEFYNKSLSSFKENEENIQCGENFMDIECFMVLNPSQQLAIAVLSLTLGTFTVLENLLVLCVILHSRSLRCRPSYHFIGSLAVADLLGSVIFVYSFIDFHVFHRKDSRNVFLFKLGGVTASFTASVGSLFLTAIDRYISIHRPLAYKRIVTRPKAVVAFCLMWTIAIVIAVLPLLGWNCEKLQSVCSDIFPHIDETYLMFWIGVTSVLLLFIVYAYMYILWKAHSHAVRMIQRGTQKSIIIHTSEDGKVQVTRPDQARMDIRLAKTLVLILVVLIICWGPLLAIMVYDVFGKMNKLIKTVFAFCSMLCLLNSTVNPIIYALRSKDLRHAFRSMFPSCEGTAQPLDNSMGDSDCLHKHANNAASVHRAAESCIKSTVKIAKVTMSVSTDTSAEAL

The target in the assay is Cannabinoid receptor 1 (Homo sapiens, UniProt P21554). As to the kind of experiment: biochemical. Type of assay: cell-based, HEK293.

pKi: −log10 of the molar value.

With `Cc1ccc(Cn2nc(C(=O)N[C@@H]3C(C)(C)[C@@H]4CC[C@@]3(C)C4)cc2-c2ccc(Cl)c(C)c2)cc1` [SR-144528], the pKi is under 5.25.

For orientation: pKi means the Ki on a negative log10 scale, so that one unit is a factor of ten. A lower pKi goes with a large Ki.
